Assay results: US20260209355

Chains of the proteins cited; added tags and fusions are not shown. Chains listed by the source or under a name are the forms on record and can include a tag or linker.
L145K mutated biotinylated and Myc tagged human CD28 stalk region dimeric peptide, one chain, as listed by the source L145K: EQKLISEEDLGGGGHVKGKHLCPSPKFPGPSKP

Test system: L145K mutated biotinylated and Myc tagged human CD28 stalk region dimeric peptide

Recombinant human MMP-13
percent of peptide cleaved (intact peptide by anti-Myc ELISA, 25 and 50 ng enzyme, 5 hours): the mutated peptide was not substantially cleaved (<5%) by either MMP-2 or MMP-13
